The source of these data is patent US9689040B2, “Selective inhibitors of tumor-initiating cells” (Children's Medical Center Corporation, priority 2011, dated 2017).

Chains of the proteins cited; added tags and fusions are not shown. Residues count along the entry.
UniProt P28074, 60-263: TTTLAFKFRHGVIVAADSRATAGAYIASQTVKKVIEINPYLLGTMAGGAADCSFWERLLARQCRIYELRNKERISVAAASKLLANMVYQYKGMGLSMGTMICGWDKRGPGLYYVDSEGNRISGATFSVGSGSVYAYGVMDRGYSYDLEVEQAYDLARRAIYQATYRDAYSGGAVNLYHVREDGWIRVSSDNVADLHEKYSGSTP

SMILES strings stand for the structures.

Data set [1] can be described thus: Body weight of bortezomib-treated mice. Format: in vivo, mouse. Conditions: 0.5 or 1.0 mg/kg i.p. q3d, 10-16 days of therapy. How it is done: For all the experiments described herein, bortezomib was given every three days (q3d), reflecting clinical protocols used in human patients, at doses of 0.5 mg/kg or 1.0 mg/kg intraperitoneally (i.p.), which were previously reported to be well-tolerated in mice.

A further data set relates to 4T1-E tumors. Conditions: 4 doses at 1.0 mg/kg i.p. q3d, after 10 days.
A further data set has as its target proteasome (Homo sapiens, UniProt P28074). The data set is described as follows: Proteasome activity in BPLER and HMLER cells (ProteaGlo assay). Conditions: 6 hr after treatment.

As to `CC(C)C[C@H](NC(=O)[C@H](Cc1ccccc1)NC(=O)c1cnccn1)B(O)O` [bortezomib], the weight loss result in data set [1] is “did not observe any significant weight loss”. In addition, in the data set on 4T1-E tumors, the “reduction of median tumor weight” value was determined as 56%. Besides, the “proteasomal activity in BPLER and HMLER” value at proteasome is on record as “decreased proteasomal activity similarly in both cell lines”.
